The results in this text go back to PubChem BioAssay AID2100 (National Center for Advancing Translational Sciences (NCATS), 2009).

Only a part is listed here, and it is no random draw. Records with an inconclusive call do not appear. Calls of active or inactive are those of the source. Calls come from the whole dose curve; as a rule, active = well fitted inhibition curve with a large enough effect; inconclusive = small, poorly fitted or top-dose-only effect, or another doubt; inactive = no such curve, though single readings can be large or run the other way.

The test deals with Lysosomal alpha-glucosidase (Homo sapiens) (UniProt P10253). Briefly: qHTS Assay for Inhibitors and Activators of Human alpha-Glucosidase Cleavage of Glycogen.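 Note: 0% = full enzyme reaction and -100% = no-enzyme basal signal; the screen sought inhibitors and activators.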 Particulars: recombinant GAA, glycogen substrate, Amplex Red glucose oxidase fluorescence; at 76.4 µM (top of the series) unless noted. The source says: NIH Chemical Genomics Center [NCGC] NIH Molecular Libraries Probe Production Centers Network [MLPCN] MLPCN Grant: R03 MH084841-01 Assay Submitter (PI): Wei Zheng NCGC Assay Overview: Alpha-glucosidase is responsible for the hydrolysis of terminal, non-reducing 1,4-linked alpha-D-glucose residues, which releases alpha-D-glucose. It is a lysosomal hydrolase that is required for the degradation of a small percentage (1-3%) of cellular glycogen in humans. Deficiency of this enzyme results in glycogen-storage disease type II (GSDII), also referred to as Pompe disease, an autosomal recessive disorder. Structurally normal glycogen is accumulated in the lysosomes and cytoplasm in affected patients, primarily in muscle tissues. Excessive glycogen storage within lysosomes may interrupt normal functioning of other organelles and leads to cellular injury. In turn, this leads to enlargement and dysfunction of the entire organ involved (eg: cardiomyopathy and muscle weakness). It has been reported that the improper folding and trafficking of alpha-glucosidase resulting from genetic mutations may account for a significant number of Pompe patients. […] We optimized this alpha-glucosidase assay in 1536-well plate format for identification of novel small molecule inhibitors or activators with structures other than the sugar analogs in order to develop new pharmacological chaperones. Previous assays of alpha-Glucosidase have utilized a non-natural fluorescent substrate to probe enzyme activity. The present assay measures enzyme activity on glycogen using a coupled-assay system to glucose oxidase.
NCGC Assay Protocol Summary: This is an enzyme assay using glycogen from bovine liver (Sigma catalog #: G0885) as the substrate and recombinant human alpha-glucosidase as the enzyme preparation. Upon hydrolysis of the substrate, the glucose product can be detected using the Amplex Red Glucose Oxidase Assay Kit (Invitrogen catalog #: A22189). The product of this reaction can be read with a fluorescence plate reader with an excitation at 573 nm and an emission at 610 nm. Data were normalized to the controls for basal activity (without enzyme) and 100% activity (with enzyme). The AC50 values were determined from concentration-response data modeled with the standard Hill equation. Assay buffer for enzyme reaction: 50 mM citric acid (titrated with potassium phosphate to pH 5.0), 0.01% Tween-20 (pH 5.0 is an optimal condition for this enzyme assay) Assay buffer for Amplex Red reaction: Tris-HCl, pH 7.5 1536-well assay protocol for the alpha-glucosidase assay: (1) Add 2 ul/well alpha-glucosidase enzyme solution (4 nM final) (2) Add 23 nL compounds in DMSO solution. The final titration was 0.7 nM to 77 uM. (3) Add 1 ul of glycogen substrate solution (30 ug) (4) Incubate at 37 C for 40 min (5) Add 2 ul tris-HCl buffer with Amplex Red reagents (6) Incubate 45 min at room temperature. (7) Detect the assay plate in a ViewLux plate reader (PerkinElmer) with Ex=573 nm and Em=610nm. Keywords: Alpha-glucosidase, Pompe Disease, pharmacological chaperone, chaperone therapy, high throughput screening, alpha-glucosidase inhibitor, MLSMR, MLSCN, NIH Roadmap, qHTS and NCGC
On to `CC(C)(C)C(=O)NC(Sc1ccncn1)C(Cl)(Cl)Cl` (stereo unspecified), for which the activity change, negative = inhibition is inactive: -5.3%.
Regarding `O=P(Nc1nc2ccccc2s1)(c1ccccc1)c1ccccc1`, the activity change, negative = inhibition is inactive: -11.2%.
As for `C[C@H]1OP(=O)(Oc2ccccc2)[C@H](O)[C@H](O)[C@H]1N=[N+]=[N-]` (stereo partly specified), the activity change, negative = inhibition was inactive: 2.22%.
The result for `O=P(Nc1ccccn1)(c1ccc(Br)cc1)c1ccc(Br)cc1` reads inactive: -10.1%; that for `CN(C)C1(CNC(=O)c2ccc(Cl)c(S(N)(=O)=O)c2)CCCCC1`, inactive: -4.77%.
Take `O=C(OC1CN2CCC1CC2)c1cccc(Cl)c1` (stereo unspecified): the activity change, negative = inhibition is inactive: -2%.
The result for `Nc1ccc([As](=O)(O)c2ccc([N+](=O)[O-])cc2)cc1` reads inactive: 5.13%; that for `C(Cc1nn[nH]n1)Cc1nn[nH]n1`, inactive: -1.04%.
Under `O=[As](O)(c1ccccc1)c1ccc(O)cc1` stands inactive: -5.32%; under `O=[N+]([O-])c1ccc(O)c(/C=N/Nc2ccc([N+](=O)[O-])cc2[N+](=O)[O-])c1`, inactive: 1.77% [at 76.3 µM].
The result for `CC(=O)NC(SC(=S)N(C)C)C(Cl)(Cl)Cl` (stereo unspecified) reads inactive: -1.96%; that for `O=[N+]([O-])c1ncn(CCn2cnc([N+](=O)[O-])n2)n1`, inactive: 1.74%; that for `c1nnnn1CCn1cnnn1`, inactive: -0.0922%.
Take `CC(C)C(=O)NC(Sc1ccccc1)C(Cl)(Cl)Cl` (stereo unspecified): the activity change, negative = inhibition was inactive: 12.9%.
Under `O=P(Nc1nccs1)(c1ccccc1)c1ccccc1` stands inactive: 4.4%; under `CC(C)(C)C(=O)NC(Sc1ccccc1)C(Cl)(Cl)Cl` (stereo unspecified), inactive: -0.74%.
Regarding `O=P1(Nc2nc3ccc(Cl)cc3s2)COc2ccccc2O1` (stereo unspecified), the activity change, negative = inhibition was inactive: -16%.
Under `CCOc1ccc(C2=NCC(CBr)S2)cc1` (stereo unspecified) stands inactive: 7.61%; under `CC(=O)Nc1ccc([As](=O)(O)O)c(O)c1`, inactive: 6.48%; under `CC(=O)Nc1ccc(Oc2c([N+](=O)[O-])cc([N+](=O)[O-])cc2[N+](=O)[O-])cc1`, inactive: 1.11%.
Under `C[C@@H]1C=CCP(=O)(Oc2ccccc2)O1` (stereo partly specified) stands inactive: -0.659%; under `C[C@H]1OP(=O)(Oc2ccccc2)C[C@@H]2O[C@@H]21` (stereo partly specified), inactive: 2.57%.
Turning to `CC(=O)c1ccc(N2CC2c2ccncc2)cc1` (stereo unspecified), the activity change, negative = inhibition was inactive: 3.68%.
On to `c1ccc(-c2nn[nH]n2)c(-c2nn[nH]n2)c1`, for which the activity change, negative = inhibition was inactive: -11.3%.
The result for `Cc1ccc(NP(=O)(Oc2cccc(C)c2)Oc2cccc(C)c2)nc1` reads inactive: -8.81%.
The result for `CCOC(=O)NC(Sc1ccccc1)C(Cl)(Cl)Cl` (stereo unspecified) reads inactive: 2.16%.
With `CCNC(=S)/N=C(\N)N[N+](=O)[O-]`, the activity change, negative = inhibition is inactive: -8.26%.
Consider `O=C(NC1CCS(=O)(=O)C1)NP(=S)(Oc1ccccc1)Oc1ccccc1` (stereo unspecified), for which the activity change, negative = inhibition was inactive: 6.83%.
The result for `Cc1ccccc1OP(=O)(Nc1ccccn1)Oc1ccccc1C` reads inactive: -0.0858%.
Regarding `CN(C)C(=O)Oc1noc2ccccc12`, the activity change, negative = inhibition is inactive: 6.81%.
The result for `O=c1c2cc([N+](=O)[O-])ccc2[nH]c2c([N+](=O)[O-])cc([N+](=O)[O-])cc12` reads inactive: 18.4%.
With `O=C(OC1CN2CCC1CC2)c1ccccc1` (stereo unspecified), the activity change, negative = inhibition is inactive: 0.595%.
Take `CCC(=O)N1C2C3N(C(=O)CC)C1C1N(C(=O)CC)C(C(N1C(=O)CC)N3C(=O)CC)N2C(=O)CC`: the activity change, negative = inhibition was inactive: 5.98%.
For `COC(=O)c1cc2c(s1)N=C(c1ccccc1)N(C)P2(=O)N1CCOCC1` (stereo unspecified), the activity change, negative = inhibition is inactive: 4.5%.
Regarding `CC(=O)NC(SC(=S)N(CC(C)C)CC(C)C)C(Cl)(Cl)Cl` (stereo unspecified), the activity change, negative = inhibition was inactive: 4.9%.
As for `Cc1ccc(OP(=O)(Nc2ccccn2)Oc2ccc(C)cc2)cc1`, the activity change, negative = inhibition is inactive: -2.36%.
